Measured values published in PMC4269550, “Lead Optimization of a Pyrazole Sulfonamide Series of Trypanosoma bruceiN-Myristoyltransferase Inhibitors: Identification and Evaluation of CNS Penetrant Compounds as Potential Treatments for Stage 2 Human African Trypanosomiasis” (Journal of Medicinal Chemistry, 2014).

Assays:
[1] = Maximum tolerated dose in mice; settings: mouse
Mouse brain penetration = type: in vivo; settings: female, NMRI, brain and blood, intravenous, 2 mg free base/kg, read-out: B:B (brain:blood ratio in mouse)
T. b. brucei S427 = assay: Stage 1 HAT mouse efficacy model, T. b. brucei S427; type: in vivo; settings: T. b. brucei S427, 50 mg/kg b.i.d. po for 4 days

## Cc1c(NS(=O)(=O)c2c(Cl)cc(-c3ccnc(N4CCNCC4)c3)cc2Cl)c(CC(C)C)nn1C [compound 6]
[1]
  stage 1 HAT therapeutic window: 2–3 fold

## Cc1nn(C)c(C)c1NS(=O)(=O)c1ccc(CCCC2CCN(C)CC2)cc1 [compound 17]
Mouse brain penetration
  Kp: ≤ 0.1

## Cc1nn(C)c(C)c1N(C(F)F)S(=O)(=O)c1c(Cl)cc(CCCCC2CCN(C)CC2)cc1Cl [compound 46]
T. b. brucei S427
  Activity in stage 1 mouse model: fully curative
